Test: Stability of the product at room temperature (purity change by HPLC)
Details: for HPLC purity: room temperature

contezolid acefosamil [Product form 2] gave an HPLC purity (time 0 month) of 97.29%, an HPLC purity (time 1 month) of 94.27% and an HPLC purity (time 2 months) of 92.99%. The HPLC purity (time 3 months) was 91.27%, the HPLC purity (time 9 months) was 83.21% and the HPLC purity (time 9 months, listed as product form 2) was 83.21%.
With contezolid acefosamil [Product form 3] the “Stability (decomposition)” value (room temperature for 24 hours) was “substantially free of decomposition”, the HPLC purity (time 0 month) was 97.54% and the HPLC purity (time 1 month) was 96.61%. For the same substance, the HPLC purity (time 2 months) was 96.77%, the HPLC purity (time 3 months) was 96.84% and the HPLC purity (time 9 months) was 95.81%.

— patent US12180242B2, “Pharmaceutical crystal of contezolid acefosamil, preparation method therefor, and uses thereof” (dated 2024)
